Assay results as given in patent US20110033525A1, “Diterpene Glycosides as Natural Solubilizers” (priority 2008, published 2011).
Values after ≈ are worked out from the molar mass of the structure shown.

Assay: physchem
Settings: 25 °C, aqueous with cosolvent or surfactant or cyclodextrin, thermodynamic from solid, Solubility in water with solubilizer

Question: With `CC(=O)O[C@H]1C(=O)[C@@]2(C)[C@H]([C@H](OC(=O)c3ccccc3)[C@]3(O)C[C@H](OC(=O)[C@H](O)[C@@H](NC(=O)c4ccccc4)c4ccccc4)C(C)=C1C3(C)C)[C@]1(OC(C)=O)CO[C@@H]1C[C@@H]2O` [Paclitaxel, reference compound] as the compound, how does the solubility read?
Answer: Its solubility is 232 µg/mL (≈ 272 µM).
